scFv variants of Ab-14 (heavy chain) against a SARS-CoV-2 spike peptide

Antigen: PDVDLGDISGINAS, a 14-residue peptide of the SARS-CoV-2 spike HR2 region.

Ab-14 is the parent antibody, in scFv form: VH, then three GGGGS repeats, then VL. The light chain is unchanged in all variants.
VH: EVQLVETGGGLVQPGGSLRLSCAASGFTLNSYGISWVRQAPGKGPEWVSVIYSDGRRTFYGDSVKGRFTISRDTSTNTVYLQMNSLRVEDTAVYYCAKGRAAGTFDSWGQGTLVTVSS
VL: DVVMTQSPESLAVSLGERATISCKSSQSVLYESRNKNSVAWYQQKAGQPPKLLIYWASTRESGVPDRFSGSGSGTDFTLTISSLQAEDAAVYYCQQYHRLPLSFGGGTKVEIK

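The library (AAYL49) carries one to three amino acid substitutions per variant, with no insertions or deletions. AlphaSeq pools MATa yeast showing the antibodies with MATalpha yeast showing the peptide. Pairs that bind mate more often; barcode pairs of the diploids are counted by sequencing. Scores were corrected for input abundance and mapped to Kd with protein pairs of known affinity run in the same pool. There are three technical replicates.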

Each variant is given by its three heavy chain CDRs, as the data file delimits them; those of the parent are GFTLNSYGIS, VIYSDGRRTFYGDSVK, GRAAGTFDS. Kd is apparent (estimated from mating counts) and averaged on the log scale over replicates with a signal. Smaller is tighter. "nd" marks a missing value. The strain was present, yet no cells mated with the target were sequenced in any replicate, which points to weak or no binding. Three control strains display no target. For library AAYL49, 15% of the pairings with them gave a signal, with a median of 11 µM and one signal in twenty below 680 nM, so weak values seen in few replicates may be background. The control count says in how many pairings with the empty strains this scFv gave a signal.

GITLNSYGIS / VIYSDGRRTFYGDSVD / GRAAGTFDS: 66 nM (3 of 3 replicates; controls 3 of 9).
GFTLNSYGIS / VILSDGRRAFYGDSVK / GRAKGTFDS: nd (0 of 3 replicates; controls 3 of 9).
GFTLNSYGIS / VIYRDGRRTEYGDEVK / GRAAGTFDS: 20 µM (1 of 3 replicates; controls 1 of 9).
MFTNNSYGIY / VIYSDGRRTFYGDSVK / GRAAGTFDS: nd (0 of 3 replicates; controls 1 of 9).
GFTLNSYGIS / VSYSDGRRTKYGDSVK / GRAFGTFDS: nd (0 of 3 replicates; controls 1 of 9).
GFTLDSYGIR / VIYSQGRRTFYGDSVK / GRAAGTFDS: nd (0 of 3 replicates; controls 3 of 9).
GFYLNSYGIS / VIYPDGRRTFYGDSVK / GRAAGTFDW: 300 nM (1 of 3 replicates; controls 0 of 9).
GFTLNSYGIS / VIYSDGRRYFYGRSIK / GRAAGTFDS: 2.5 µM (1 of 3 replicates; controls 1 of 9).
GTTLNSYGIS / VIYSDGRRTFYGDSVL / GRAAGTFWS: 1.1 µM (3 of 3 replicates; controls 1 of 9).
GFALNSYGIS / VIYSAGRRTFYGDSVF / GRAAGTFDS: nd (0 of 3 replicates; controls 0 of 9).
GFTLNSYGIS / VIYSDGRRTFYGGSVC / GFAAGTFDS: 740 nM (3 of 3 replicates; controls 0 of 9).
GFTLNSYGIS / VIYSDGRRTFYGDIVQ / GRAWGTFDS: nd (0 of 3 replicates; controls 0 of 9).
GFTLNSYGIA / VIYSAGRRTFYGDSVK / VRAAGTFDS: nd (0 of 3 replicates; controls 0 of 9).
GFTLNSYGIS / VINSDGCRTFYGDSVK / GPAAGTFDS: 3.0 µM (1 of 3 replicates; controls 3 of 9).
HFTLNSYGIS / VIYSDGRRTFTGDSNK / GRAAGTFDS: nd (0 of 3 replicates; controls 1 of 9).
GFTLNSYGIS / RIYSDGRRTFYGDSCK / GRAAGTFVS: nd (0 of 3 replicates; controls 0 of 9).

Further variants, results first:

nd (0 of 3 replicates; controls 0 of 9) for GFTLNSYGIS / VYYSDGRHTFYGDSVK / GRAAGTFDG.
nd (0 of 3 replicates; controls 0 of 9) for HETLNSYGIS / VIYSDGRRTFYGDSVF / GRAAGTFDS.
nd (0 of 3 replicates; controls 0 of 9) for GFTLNSYGIS / VIYSDGRRTTYGDSVK / GRAATHFDS.
1.2 µM (3 of 3 replicates; controls 3 of 9) for GFELNSYGIS / VIYSDGRRTFYGDSFK / GRPAGTFDS.
1.3 µM (1 of 3 replicates; controls 0 of 9) for GFTLNGYGIS / VIYQDGCRTFYGDSVK / GRAAGTFDS.
170 nM (3 of 3 replicates; controls 2 of 9) for GFTLNTYGIS / VIYSDGRRTFYWDSVK / GRAAGTFDE.
nd (0 of 3 replicates; controls 1 of 9) for GFDLNSYGIS / VIYSDGRRTFEGDSVL / GRAAGTFDS.
68 µM (1 of 3 replicates; controls 1 of 9) for GFTLNYYGIS / VIYCDGRRTFYGDSVK / GRFAGTFDS.
36 µM (3 of 3 replicates; controls 2 of 9) for GFTENSYGIS / VYYSDGRRTFYGDSVK / GRAAGTWDS.
120 nM (3 of 3 replicates; controls 1 of 9) for GFTLSSYGIS / VIYSDGRWTFYGDSDK / GRAAGTFDS.
8.1 µM (1 of 3 replicates; controls 2 of 9) for GFTLNSYGIS / VIVSDGRRTFYLDSVK / GRAAGTRDS.
150 µM (1 of 3 replicates; controls 2 of 9) for GFTLNSYAIS / VIYFDGRRTFNGDSVK / GRAAGTFDS.
5.7 µM (1 of 3 replicates; controls 0 of 9) for FFTLNSYGIP / VIYSDGRRTFYGDSFK / GRAAGTFDS.
20 nM (3 of 3 replicates; controls 0 of 9) for GFTLNSYGIS / VIYGDGRRTFYSDSVK / GRAAGTFDI.
nd (0 of 3 replicates; controls 3 of 9) for GFTLISMGIS / VIYSDGRFTFYGDSVK / GRAAGTFDS.
4.5 µM (1 of 3 replicates; controls 2 of 9) for GFTLNSYGIS / FIYSDGRRTNYGDSVK / GRAANTFDS.
38 µM (3 of 3 replicates; controls 5 of 9) for GFTLNSYGIT / VRYSDGRRTFYGDSVK / GGAAGTFDS.

Excerpt, the first 4 entries:

CDR-H1	CDR-H2	CDR-H3	Kd (apparent)	detected	empty controls
GITLNSYGIS	VIYSDGRRTFYGDSVD	GRAAGTFDS	66 nM	3 of 3	3 of 9
GFTLNSYGIS	VILSDGRRAFYGDSVK	GRAKGTFDS	nd	0 of 3	3 of 9
GFTLNSYGIS	VIYRDGRRTEYGDEVK	GRAAGTFDS	20 µM	1 of 3	1 of 9
MFTNNSYGIY	VIYSDGRRTFYGDSVK	GRAAGTFDS	nd	0 of 3	1 of 9

Data: MIT Lincoln Laboratory AlphaSeq set, Engelhart et al. 2022, doi:10.1038/s41597-022-01779-4, as distributed in FLAb.